We go through 1 compound from US20100061984A1, “COMPOSITIONS AND METHODS FOR MODULATION OF SUPPRESSOR T CELL ACTIVATION” (The Trustees of the University of Pennsylvania, priority 2006, published 2010).

Protein sequences, listed by entry. Tags and fused reporters are not part of them. Lines headed by an entry give the natural chain unless they say otherwise; changes in a name come on top.
UniProt Q9UKV0: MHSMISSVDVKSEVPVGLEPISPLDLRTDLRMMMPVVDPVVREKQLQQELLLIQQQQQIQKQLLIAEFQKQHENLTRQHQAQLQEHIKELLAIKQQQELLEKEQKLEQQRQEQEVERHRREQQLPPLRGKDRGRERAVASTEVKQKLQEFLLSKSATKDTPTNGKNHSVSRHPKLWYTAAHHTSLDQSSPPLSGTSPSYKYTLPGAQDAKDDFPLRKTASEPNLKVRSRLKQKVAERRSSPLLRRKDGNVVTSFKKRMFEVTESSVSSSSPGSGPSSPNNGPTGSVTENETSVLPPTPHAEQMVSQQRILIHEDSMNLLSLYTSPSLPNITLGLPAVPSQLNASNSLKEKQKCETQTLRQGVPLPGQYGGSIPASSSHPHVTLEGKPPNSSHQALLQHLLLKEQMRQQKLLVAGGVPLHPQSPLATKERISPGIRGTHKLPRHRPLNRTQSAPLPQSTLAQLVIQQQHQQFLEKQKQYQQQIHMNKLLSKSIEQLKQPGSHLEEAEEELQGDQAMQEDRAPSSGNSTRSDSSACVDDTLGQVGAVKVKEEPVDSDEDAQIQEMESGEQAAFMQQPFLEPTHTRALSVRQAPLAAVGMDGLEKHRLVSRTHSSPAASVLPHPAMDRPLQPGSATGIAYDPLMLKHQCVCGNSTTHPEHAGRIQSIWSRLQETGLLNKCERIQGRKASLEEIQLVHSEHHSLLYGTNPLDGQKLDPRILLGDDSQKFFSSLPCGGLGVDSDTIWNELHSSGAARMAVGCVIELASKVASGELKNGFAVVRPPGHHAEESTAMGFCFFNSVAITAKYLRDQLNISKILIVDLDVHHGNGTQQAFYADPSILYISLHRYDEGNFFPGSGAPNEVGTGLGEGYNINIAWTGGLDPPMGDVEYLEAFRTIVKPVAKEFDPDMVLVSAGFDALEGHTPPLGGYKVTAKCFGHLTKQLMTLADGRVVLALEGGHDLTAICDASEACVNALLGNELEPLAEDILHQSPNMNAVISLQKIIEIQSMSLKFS

For assay [1], the target named is T1, FOXP3-HDAC9 complex (Homo sapiens, UniProt Q9UKV0).
T1 construct: antagonize the FOXP3 complex from its association with endogenous HDAC9; expressed in transfected cells; host or cells: Jurkat E6.1 T cells (FOXP3a transfected; HDAC9 endogenous)
Nature of the assay: FOXP3-HDAC9 co-immunoprecipitation in TCR plus CD28 stimulated HA-FOXP3a Jurkat T cells. Particulars: 400 nM TSA, 4 hours, Jurkat T cells expressing HA-FOXP3a (FIG. 15A). The class given is cell-based.

Assay [2] has as its target T1, FOXP3-HDAC9 complex. Nature of the assay: endogenous FOXP3-HDAC9 co-immunoprecipitation in activated and expanded human CD4+CD25+ T cells. Particulars: 400 nM TSA for 4 hours, anti-CD3/CD28 activated and expanded human CD4+CD25+ T cells (FIG. 15B). The assay is classed as cell-based.

In the case of `CC(/C=C/C(=O)NO)=C\[C@@H](C)C(=O)c1ccc(N(C)C)cc1` [TSA, Trichostatin A], the “disruption of the FOXP3-HDAC9 complex by TCR plus CD28 stimulation” value on FOXP3-HDAC9 complex [1] was “can be reversed”. Further, the “endogenous FOXP3-HDAC9 association” value at FOXP3-HDAC9 complex [2] was “sufficient to promote endogenous FOXP3-HDAC9 association”.
